Assay results reported in patent EP0762893B1, “TREATMENT OF PLASMA” (SUOMEN PUNAINEN RISTI VERIPALVELU, priority 1994, dated 1995).

Details: 30 µmol/l of MB and 3 mmol/l of ascorbate at pH 3

CN(C)c1ccc2nc3ccc(=[N+](C)C)cc-3sc2c1 [MB, methylene blue]
form of MB in concentrated solution: reduced to a nonabsorbing form
